Binding of CDR-mutated scFvs to a peptide of the spike HR2 region

All variants were tested on one target, the spike HR2 peptide PDVDLGDISGINAS (SARS-CoV-2).

Parent: Ab-91, a human scFv built as VL, three GGGGS repeats, VH. Only the CDRs of the heavy chain vary.
VL: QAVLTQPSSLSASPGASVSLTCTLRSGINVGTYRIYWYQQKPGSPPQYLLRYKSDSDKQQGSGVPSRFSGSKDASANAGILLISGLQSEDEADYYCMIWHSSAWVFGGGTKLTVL
VH: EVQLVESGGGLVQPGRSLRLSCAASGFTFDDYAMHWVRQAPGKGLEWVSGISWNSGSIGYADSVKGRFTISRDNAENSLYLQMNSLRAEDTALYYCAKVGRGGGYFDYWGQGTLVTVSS

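Phage display of a naive human antibody library on the peptide gave the parent. Variants in AAYL51 differ from the parent at up to three CDR positions; double and triple changes were sampled at random. The assay is AlphaSeq: two haploid yeast populations carry antibody and antigen on their surface. Binding brings cells together so that they mate, and sequencing counts the barcode pairs among the diploids. A regression on co-assayed BCL2-family reference pairs converts the normalised counts of each replicate to an apparent Kd. Mating was done three times.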

Each variant is given by its three heavy chain CDRs, as the data file delimits them; those of the parent are GFTFDDYAMH, GISWNSGSIGYADSVK, VGRGGGYFDY.
The read-out is the apparent dissociation constant on a log10 scale (nM): the lower, the stronger.
A mean of the replicates is given; it leaves out those without a signal.
A pair that was not seen in that replicate is written "nd"; this usually means weak binding, but a binder can also be missed.
For reference, the parent read 1.86 as the reference entry and 0.88 as a member of this library.
Empty control strains, which show no peptide, gave a signal in 21% of pairings with library AAYL51; the median was 4.54 and 95% of these signals were weaker than 3.26. No background was subtracted. Also given: how often the same scFv was detected with the empty control strains.

Variant GFTFDEYAMH / GISWNSISKGYADSVK / VGRGGGYFDY gave 1.43, 1.51, 1.65 (mean 1.53; controls 2 of 9).
Variant GFTFDDYAMH / GISWNSGSIGYAINVK / VGRVGGYFDY gave 5.43, 5.15, nd (mean 5.29; controls 3 of 9).
Variant GFTFDDYAMH / GISWNSGSIGWADSVL / VGRGGTYFDY gave nd, nd, nd (controls 0 of 9).
Variant GWTFDDLAMY / GISWNSGSIGYADSVK / VGRGGGYFDY gave 4.40, nd, nd (controls 3 of 9).
Variant GFTFDDYAMH / GISWNHGSIGYADSVK / VGRGNGYFDY gave nd, nd, nd (controls 2 of 9).
Variant GFTFDMYAMH / GISWTSGSIGYQDSVK / VGRGGGYFDY gave nd, 4.86, nd (controls 5 of 9).
Variant GFTFDMYAMH / SISWNSGSSGYADSVK / VGRGGGYFDY gave nd, nd, nd (controls 1 of 9).
Variant GFNFDDYAMH / EISWNSGSIGYADSVK / VGRGGGYSDY gave nd, nd, nd (controls 0 of 9).
Variant GFTFDSYAMH / GISWNSISIGYADSVK / VGRGGGYFNY gave 3.95, 2.98, 2.59 (mean 3.17; controls 0 of 9).
Variant GFTFDDYAMH / GISWNSGSMGTADSVK / VGRGGGYFDY gave 3.05, 2.76, 2.48 (mean 2.76; controls 1 of 9).
Variant GFAFDDYAMH / GISWNSGSIGYADSVK / CGRGGGYFPY gave 1.19, 1.31, 0.90 (mean 1.13; controls 7 of 9).
Variant GFTFDDDAMH / GWSWNSGSIGYADSVK / GGRGGGYFDY gave nd, nd, nd (controls 2 of 9).
Variant GFTFDDYAMA / GISWNSGSIDYADSVK / VGRGGGYFDY gave nd, nd, nd (controls 0 of 9).
Variant GITFDDYAMH / GISWNSGSIGYADSVK / AGRGGPYFDY gave 2.22, 2.40, 2.30 (mean 2.31; controls 3 of 9).
Variant GFTFDDYAMH / GISWCSGSIGYADSVK / VGRGGGYFIV gave 4.67, 3.82, nd (mean 4.25; controls 3 of 9).
Variant GFTFCDYAMH / GISLNSGSIGYADSVK / VGRGGGFFDY gave 4.90, nd, nd (controls 1 of 9).
Variant GFTFDGYAMH / GISWNEGSIGYADSVK / VGRGGAYFDY gave 5.13, 6.64, 5.35 (mean 5.71; controls 6 of 9).
Variant GFTFDDYAMH / GIPWNKGSIGYADSVK / VGRGGGYFDY gave 5.54, 5.35, nd (mean 5.44; controls 7 of 9).
Variant GFTFDDYAMH / GISWNSGSSGYSDVVK / VGRGGGYFDY gave 1.25, 1.29, 0.70 (mean 1.08; controls 4 of 9).
Variant GFTFDDYAMH / GIAWNSGYIGYADNVK / VGRGGGYFDY gave 1.36, 1.21, 1.11 (mean 1.23; controls 2 of 9).
Variant PFTFDDYAMH / GISWNSGSTGYADSVK / VGRGVGYFDY gave 3.55, nd, nd (controls 0 of 9).
Variant GFTFDDYAMD / GICWNSGSIGYADSVK / VIRGGGYFDY gave nd, 6.12, nd (controls 0 of 9).
Variant GFTFDDYAMH / GISWNSGSIGYYDSVK / VFRGGGYFIY gave nd, nd, nd (controls 0 of 9).
Variant GFTFDDYAMH / TISWNSGSIGYADPVK / YGRGGGYFDY gave nd, nd, nd (controls 1 of 9).
Variant GFTFDDYAMH / GISWNSCSIGYADSVK / VGVGGGNFDY gave nd, nd, 3.07 (controls 0 of 9).
Variant GFTFDDYAMH / GISWNSGSIGVAVSVK / VGRGSGYFDY gave nd, nd, nd (controls 0 of 9).
Variant WFHFDDYAMH / GISWNSGSIGPADSVK / VGRGGGYFDY gave 3.03, 4.72, 4.40 (mean 4.05; controls 3 of 9).
Variant GFTFDDYAMH / GISWNSGSIGYALSVK / VGWGNGYFDY gave 4.39, 4.42, 4.89 (mean 4.56; controls 1 of 9).
Variant GFTFDDYAMY / AISWNSGSIGYADSLK / VGRGGGYFDY gave nd, nd, nd (controls 3 of 9).
Variant RFTFHDYAMH / GKSWNSGSIGYADSVK / VGRGGGYFDY gave 4.70, nd, 4.05 (mean 4.38; controls 1 of 9).
Variant CFTFDDYAMH / GIMWNSGSIGYADSVK / VGRGGGYFDY gave 5.59, 5.94, nd (mean 5.76; controls 0 of 9).
Variant GWTFDDYAMH / GISKNSGSIGYQDSVK / VGRGGGYFDY gave nd, nd, nd (controls 0 of 9).
Variant GFTFGDYRMH / GIHWNSGSIGYADSVK / VGRGGGYFDY gave 4.84, nd, nd (controls 2 of 9).
Variant EFTFDDYAMH / GISWNSGSIGYSDSVK / VGRGGGYFDY gave nd, nd, nd (controls 0 of 9).
Variant EFTFDDYAFH / GISWNSGSIGYADSVK / VGRGGGYFNY gave nd, nd, 4.59 (controls 2 of 9).
Variant GFTFDDYAMH / GISWNSGSIGYADIVK / PGHGGGYFDY gave nd, nd, nd (controls 0 of 9).
Variant GFTFDVYAMH / GISWNRGSIGYADSVK / VGRGGGCFDY gave nd, 4.00, nd (controls 1 of 9).
Variant GMTFDDYAMH / WISWNSGSIAYADSVK / VGRGGGYFDY gave 6.64, 4.94, 4.33 (mean 5.30; controls 7 of 9).
Variant GFTFDDGAMH / GISWNSGSINYADSVK / VGRGGGYFDY gave nd, nd, nd (controls 0 of 9).

Top 3 of the variants detected in all replicates, tightest first:

The variant GFTFDDYAMH / GISWNSGSSGYSDVVK / VGRGGGYFDY showed 1.25, 1.29, 0.70 (mean 1.08; controls 4 of 9).
The variant GFAFDDYAMH / GISWNSGSIGYADSVK / CGRGGGYFPY showed 1.19, 1.31, 0.90 (mean 1.13; controls 7 of 9).
The variant GFTFDDYAMH / GIAWNSGYIGYADNVK / VGRGGGYFDY showed 1.36, 1.21, 1.11 (mean 1.23; controls 2 of 9).

Reference: Engelhart et al. 2022, doi:10.1038/s41597-022-01779-4. File: FLAb, binding data.